Experimental findings from article PMC11913717 are described below.

This test has as its target biotinylated EGF receptor (Acro) (UniProt P00533). The test can be described thus: SPR; Biacore X100, biotinylated EGFR immobilised on SA chip (5000 RU); EGF injected in HBS-EP pH 7.4, 150 mM NaCl, contact 180 s, dissociation 600 s; steady state fit. (SPR reads the build-up and loss of mass on a sensor chip optically.)

“wild‐type EGF (commercially available) (ligand)” had a Kd of 7.3 nM.

In general, Kd refers to the constant that tells how readily two partners part at equilibrium. Low values mean a tighter complex, high ones a looser complex.
